Data: patent publication US8278033B2, “Efficient well being assessment and improved treatment protocol” (priority 2008, dated 2012)

Columns and labels:
endothelial cells = test: Anti-vascular score (AVS) on Fast Green/H&E slides of tumor cell cultures, averaged over paired comparisons; assay type: cell-based, human; settings: ratio of vehicle-corrected AVS to antitumor score; concentrations as in Table 1
Protocol: Solid tumors are minced to pieces smaller than 1 mm (small enough to be aspirated into a standard disposable 10 ml pipette) with high quality curved surgical scissors. Medium in which said tumors may have been transported is reserved, along with the supernatant from the tissue mince. Scissor-minced tumor pieces are digested with collagenase/DNase in RPMI-1640 containing antibiotics and 10% fetal calf serum. Specimens are digested in 50 ml disposable polypropylene centrifuge tubes, assisted by gentle mixing with plastic-coated, magnetic stirring bars over a stirring plate. Specimens are thusly mixed until complete gross digestion has taken place—typically about 2-3 hours for a 1-3 gram specimen. Cytospin slides are then prepared from all cell fractions (transport medium, supernatant from tissue mince, and enzyme digestate), and stained with fast green-H&E, as described previously (Weisenthal, et al., “A Novel Dye Exclusion Method for Testing in vitro Chemosensitivity of Human Tumors,” Cancer Res. (1983) 43:749-757).
Final volume of cell suspension/drug solution (or vehicle) plated for culture can be 0.12 ml. […]
Cells are cultured with the index concentration of each drug and, if desired, with dilutions of the index concentration, where the index concentration is determined from training set assays or from the literature. […]

breast cancer = breast cancer patient with daily wine consumption of 1.5 l; Eichbaum, Anticancer Drugs (2005); cited from earlier work

Row | Compound | (AVS − VAVS)/AT Ratio (Avg) (endothelial cells) | remission on therapy (breast cancer)
1 | CNC(=O)c1cc(Oc2ccc(NC(=O)Nc3ccc(Cl)c(C(F)(F)F)c3)cc2)ccn1 [Sorafenib, sorafenib] | 0.05 | –
2 | trastuzumab | – | 5-year+ remission
